Reference: US20070020718A1

Protein sequences, listed by entry. Tags and fused reporters are not part of them. Residues count along the entry.
UniProt P40337, 54-213, chain 1 of 3: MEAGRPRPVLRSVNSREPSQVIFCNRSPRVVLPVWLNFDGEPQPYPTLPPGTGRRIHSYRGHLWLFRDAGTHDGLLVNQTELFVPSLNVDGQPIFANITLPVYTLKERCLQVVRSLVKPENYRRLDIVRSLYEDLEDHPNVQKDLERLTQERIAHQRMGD

Molecular target: GST-VBC protein (VHL-Elongin B-Elongin C complex) (human) (UniProt P40337)

With F-P564 peptide as the substance, how does the fluorescence polarization value read?
Its fluorescence polarization value is 0.066.
